The source made the active and inactive calls. No cut-off for these calls is given here.
Assay: Reactivity with cysteine at 0.1 mM in 0.1M phosphate buffer assessed as amount of compound unreacted by HPLC

With `N#Cc1c(-c2ccc(-c3no[n+]([O-])c3C#N)s2)no[n+]1[O-]` the Activity was “Active”.

— ChEMBL document CHEMBL1155233, “Structure mechanism insights and the role of nitric oxide donation guide the development of oxadiazole-2-oxides as therapeutic agents against schistosomiasis” (J Med Chem, 2009)
